{"source": "paper PMC8748767", "about": "(Nature Communications, 2022)", "proteins": {"B1": {"name": "Tyrosine hydroxylase, full-length human isoform TH1 (enzyme)", "chain": "not shown", "notes": "human tyrosine hydroxylase, isoform TH1 (the shortest isoform; models end at residue 497; TH4 is 31 residues longer); numbers count on: isoform TH1; TH(DA) is the same protein incubated with ferrous ammonium sulfate (1:1) and dopamine (2:1 per subunit); also called apo-TH; not shown: His, N-terminal, cleaved; MBP, N-terminal, cleaved"}, "B2": {"name": "Tyrosine hydroxylase phosphorylated on S40 (THS40p) (enzyme)", "chain": "not shown", "modifications": "phosphoserine at 40 (phosphorylation stoichiometry 0.98 ± 0.03)", "notes": "human tyrosine hydroxylase, isoform TH1; numbers count on: isoform TH1; The reconstruction was made with D2 symmetry imposed; also called S40 phosphorylated TH; pS40-TH; source: recombinant TH purified as m1, then phosphorylated in vitro with the catalytic subunit of cAMP-dependent protein kinase; not shown: His, N-terminal, cleaved; MBP, N-terminal, cleaved"}}, "key": {"[1]": {"target": "the molecule itself", "test": "SEC; gel filtration of purified TH on Superdex 200 Increase 3.2/300, 4 °C"}, "[2]": {"target": "the molecule itself", "test": "cryo-EM structure; no dopamine added (apo-TH; THS40p); vitrified on UltraAufoil grids; D2 symmetry applied"}}, "note": "Values joined by “and” are separate entries in the source; they are usually repeats but may differ in a detail not shown here. Identical values can stand only once.", "data": [{"protein": "B1", "values": [{"measurement": "stoichiometry N", "setting": "[1]", "result": "4 and 8"}]}, {"protein": "B2", "values": [{"measurement": "binding result", "setting": "[2]", "result": "binds"}]}]}
